Data on one molecule can be found in ChEMBL document CHEMBL1130841, “Evaluation of phosphorus-containing inhibitors of gamma-glutamyl hydrolase” (Bioorg Med Chem Lett, 1998).

The chains behind the UniProt entries cited, without tags or fusion partners.
UniProt Q92820, whole entry, looked up: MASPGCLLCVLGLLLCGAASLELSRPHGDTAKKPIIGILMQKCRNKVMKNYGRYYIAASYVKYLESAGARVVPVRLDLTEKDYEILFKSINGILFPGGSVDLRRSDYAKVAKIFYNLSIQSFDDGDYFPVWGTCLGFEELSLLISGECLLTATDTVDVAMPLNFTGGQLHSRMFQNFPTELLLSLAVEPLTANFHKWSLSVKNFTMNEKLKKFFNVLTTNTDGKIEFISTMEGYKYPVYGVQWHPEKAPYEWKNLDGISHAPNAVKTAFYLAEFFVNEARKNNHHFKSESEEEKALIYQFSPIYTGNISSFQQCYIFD

The assay addresses Gamma-glutamyl hydrolase (Homo sapiens, UniProt Q92820). As to the kind of experiment: Compound was tested for inhibitory potency against gamma-Glutamyl Hydrolase.

Each structure is given as a SMILES string.

As for `CP(=O)(O)N[C@@H](CCC(=O)O)C(=O)O`, the affinity corresponds to a Ki of 0.93 nM. In other words, the sub-nanomolar range.
